Test system: panel of cancer cell lines
Settings: on average across all the cancer cell lines

[Pt(Phen)(SSDACH)(Aspirin)(OH)](NO3)2 [compound 3]
fold more active than corresponding di-hydroxido platinum(IV) derivative (PHENSS(IV) or 56MESS(IV)): ten-fold

Reference: article PMC9029360, “Cyclooxygenase-Inhibiting Platinum(IV) Prodrugs with Potent Anticancer Activity” (Pharmaceutics, 2022)
